The assay has as its target Type IV collagenase (MMP-9) (Homo sapiens, UniProt P14780). Briefly: Type IV collagenase (MMP-9) inhibition assay, fluorescent substrate kit. The conditions noted are these: activated MMP-9 from HT 1080 cells; type IV collagenase activity kit, fluorescent intensity. It counts as biochemical.

Protein sequences, listed by entry. Tags and fused reporters are not part of them. Residues count along the entry.
UniProt P14780, 107-707 limits assumed: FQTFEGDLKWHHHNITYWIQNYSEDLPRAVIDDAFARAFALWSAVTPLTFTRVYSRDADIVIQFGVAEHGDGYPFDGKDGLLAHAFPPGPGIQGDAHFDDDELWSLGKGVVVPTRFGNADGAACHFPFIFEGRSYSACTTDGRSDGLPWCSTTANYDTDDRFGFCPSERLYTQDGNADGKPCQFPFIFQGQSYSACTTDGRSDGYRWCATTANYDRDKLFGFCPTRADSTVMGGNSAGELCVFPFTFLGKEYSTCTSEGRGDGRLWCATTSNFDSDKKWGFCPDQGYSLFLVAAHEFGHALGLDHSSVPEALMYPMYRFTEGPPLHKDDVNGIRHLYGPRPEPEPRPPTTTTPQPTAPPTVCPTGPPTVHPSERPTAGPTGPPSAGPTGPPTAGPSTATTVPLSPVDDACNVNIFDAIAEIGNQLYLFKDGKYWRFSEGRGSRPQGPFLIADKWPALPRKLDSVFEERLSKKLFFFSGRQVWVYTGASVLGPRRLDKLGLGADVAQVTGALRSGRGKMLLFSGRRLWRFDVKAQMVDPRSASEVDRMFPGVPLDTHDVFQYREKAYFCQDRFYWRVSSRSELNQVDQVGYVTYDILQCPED

Structures are written as SMILES.

As usually defined, the IC50 is the concentration that inhibits the measured activity by half. The compound `CC(C)[C@@H](NS(=O)(=O)c1ccc(C#Cc2ccc(O)cc2)cc1)C(=O)O` yielded an IC50 of 2.98 µM.

The record behind these values is US6919375B1, “Sulfonated amino acid derivatives and metalloproteinase inhibitors containing the same” (Shionogi & Co., Ltd., priority 1996, dated 2005).
